The values that follow come from PubChem BioAssay (Tox21).

Where “and” joins values, the source holds several entries; their conditions need not be identical. Identical values can stand only once. The list shows a part of the results, in another mix than the full data. Inconclusive results are not listed. Calls of active or inactive are those of the source. Unless noted, calls come from the whole dose curve; as a rule, active = well fitted curve in the direction sought with a large enough effect in the repeat runs; inconclusive = weak or mixed curves; inactive = no such curve, though single readings can be large; an effect the other way counts as inactive or inconclusive.

A short description of test [1]: qHTS assay for small molecules that induce genotoxicity in human embryonic kidney cells expressing luciferase-tagged ATAD5 - cell viability (AID 651634; calls by dose curve; note: nearly all actives have a fitted effect of over 25% in size). Conditions: HEK293T ATAD5-luc cells viability, CellTiter-Fluor, 15.5 h. The essentials: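 After 15.5 hr incubation with compound at 37C, 5% CO2, HEK293T ATAD5-luciferase cells received CellTiter-Fluor reagent; fluorescence intensity was quantified following 30 min at 37C.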

A short description of test [2]: qHTS assay for small molecule disruptors of the mitochondrial membrane potential - cell viability (AID 720634; calls by dose curve;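 note: human HepG2 liver cancer cells; nearly all actives have a fitted effect of over 20% in size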). The following applies: HepG2 viability, ATP luminescence (CellTiter-Glo), 1 h. The essentials:
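ATP-based luminescent viability readout (CellTiter-Glo, 30 min, room temperature) in HepG2 cells multiplexed with the m-MPI membrane potential dye; compound exposure lasted 1 hr at 37 C.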

A short description of test [3]: qHTS assay for small molecule disruptors of the mitochondrial membrane potential (AID 720635). Note: potency is the fitted concentration of half-maximal effect. Conditions: HepG2 mitochondrial membrane potential, Mito-MPS dye ratio; series mostly up to 83.2 µM. In a few lines: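 HepG2 cells (2,000/well) attached overnight at 37C, then took compound for 1 hr at 37C, 5% CO2. Mito-MPS dye was added for 30 min; fluorescence was read at 490/535 nm (monomers) and 540/590 nm (aggregates).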

The nature of test [4]: qHTS assay to test for compound auto fluorescence at 590 nm (red) in HepG2 cells (AID 720674). The following applies: HepG2 autofluorescence, red 540/590 nm, 1 h. The source says:
U.S. Tox21 Program National Center for Advancing Translational Sciences [NCATS] NIH Chemical Genomics Center [NCGC] U.S. Environmental Protection Agency [EPA] National Institutes of Environmental Health Sciences [NIEHS] National Toxicology Program [NTP] U.S. Food and Drug Administration [FDA] Tox21 Assay Overview: Compound auto fluorescence often interferes with screening of the compound library against various biological targets and signaling pathways. Some of these compounds may have fluorophoric properties. Such properties may interfere with the assay outputs resulting in false positives and/or negatives. To decrease such complications and ensure the compound activities are relevant in terms of biological response, the Tox21 10K compound library was screened for auto fluorescence. From the fluorophores used as reporter signals in our screening assays, the auto fluorescence equivalencies of compounds against three fluorophores have been evaluated: Triamterene, Fluorescein and Rose Bengal sodium for blue, green and red fluorescence, respectively. The fluorescence intensities were measured using Excitation/Emission wavelengths at 405/460nm, 485/535nm and 540/590nm for blue, green and red labels, respectively. This assay includes the red fluorescence data.
(§1) Tox21 Assay Protocol Summary: 2,000 HepG2 cells in 5 uL of culture medium (MEM containing 10% FBS) per well were dispensed into black wall/clear bottom 1536-well plates using a Multidrop Combi Dispenser (ThermoFisher Scientific, Waltham, MA). The assay plates were incubated overnight at 37 C to allow cell attachment to the well bottom, followed by the transfer of 23 nL compound or DMSO vehicle by a pintool work station (Kalypsys , San Diego, CA). After the assay plates were incubated for 1 hr at 37 C and 5% CO2, fluorescence intensities in the assay plates were measured by an Envision (PerkinElmer, Shelton, CT) plate reader using three labels for measuring blue, green and red fluorescence at […] 460, 535 and 590 nm respectively.

The nature of test [5]: qHTS assay to test for compound auto fluorescence at 535 nm (green) in HepG2 cells (AID 720675). Conditions: green autofluorescence 485/535 nm, 1 h.
Description: (§2) National Center for Advancing Translational Sciences [NCATS]
(§3) NIH Chemical Genomics Center [NCGC]
(§4) U.S. Environmental Protection Agency [EPA]
(§5) National Institutes of Environmental Health Sciences [NIEHS]
(§6) National Toxicology Program [NTP]
(§7) U.S. Food and Drug Administration [FDA]
(§8) Compound auto fluorescence often interferes with screening of the compound library against various biological targets and signaling pathways. Some of these compounds may have fluorophoric properties. Such properties may interfere with the assay outputs resulting in false positives and/or negatives. To decrease such complications and ensure the compound activities are relevant in terms of biological response, the Tox21 10K compound library was screened for auto fluorescence.
From the fluorophores used as reporter signals in our screening assays, the auto fluorescence equivalencies of compounds against three fluorophores have been evaluated: Triamterene, Fluorescein and Rose Bengal sodium for blue, green and red fluorescence, respectively. The fluorescence intensities were measured using Excitation/Emission wavelengths at 405/460nm, 485/535nm and 540/590nm for blue, green and red labels, respectively. This assay includes the green fluorescence data.
(§9) Tox21 Assay Protocol Summary:
as §1, with “2,000” for “Tox21 Assay Protocol Summary: 2,000”

A short description of test [6]: qHTS assay to test for compound auto fluorescence at 460 nm (blue) in HEK293 cells (AID 720678). The following applies: blue autofluorescence 405/460 nm. In a few lines: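 HEK293, 2,000 cells/well, 10% dialyzed FBS; attach 4-5 hr 37C; pin compound or DMSO; o/n 37C/5% CO2; fluorescence 405/460 nm; triamterene-equivalent units.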
Test [7] in a line: qHTS assay to test for compound auto fluorescence at 590 nm (red) in HEK293 cells (AID 720679). Conditions: red autofluorescence 540/590 nm.
Description: as §2, §3, §4, §5, §6, §7, §8
From the fluorophores used as reporter signals in our screening assays, the auto fluorescence equivalencies of compounds against three fluorophores have been evaluated: Triamterene, Fluorescein and Rose Bengal sodium for blue, green and red fluorescence, respectively. The fluorescence intensities were measured using Excitation/Emission wavelengths at 405/460nm, 485/535nm and 540/590nm for blue, green and red labels, respectively. This assay includes the red fluorescence data.
as §9
2,000 HEK293 cells in 5 uL of culture medium containing 10% dialyzed FBS per well were dispensed into black wall/clear bottom 1536-well plates using a Multidrop Combi Dispenser (Thermo Scientific). The assay plates were incubated for 4-5 hr at 37C to allow cell attachment to the well bottom, followed by the transfer of 23 nL compound or DMSO vehicle by a pintool work station (Kalypsys, San Diego, CA). After the assay plates were incubated overnight at 37C and 5% CO2, fluorescence intensities in the assay plates were measured by an Envision (PerkinElmer, Shelton, CT) plate reader using three labels for measuring blue, green and red fluorescence at […] 460, 535 and 590nm respectively.

Test [8] in a line: qHTS assay for small molecule agonists of the p53 signaling pathway (AID 651631; calls by dose curve; note: nearly all actives have a fitted effect of over 15% in size). Conditions: HCT-116 p53RE-bla reporter, beta-lactamase FRET ratio, 16 h. The essentials: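 HCT-116 p53RE-bla reporter line, 16 h compound treatment at 37 °C, then fluorescence after 2 h with B/G FRET substrate.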
Test [9] is described as follows: qHTS assay for small molecules that induce genotoxicity in human embryonic kidney cells expressing luciferase-tagged ATAD5 (AID 651632). Note: nearly all actives have a fitted effect of over 15% in size. The following applies: HEK293T ATAD5-luciferase induction, 16 h. In a few lines:
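Quantitative HTS in HEK293T expressing luciferase-tagged ATAD5, whose levels rise upon DNA damage. Exposure ran 16 hr at 37C and 5% CO2, with luminescence read 30 min after Amplite addition at room temperature.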

A short description of test [10]: qHTS assay for small molecule agonists of the p53 signaling pathway - cell viability (AID 651633; calls by dose curve; note: nearly all actives have a fitted effect of over 30% in size). Conditions: p53RE-bla HCT-116 viability, ATP luminescence, 16 h. In a few lines:
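p53RE-bla cells, seeded at 4,000 per well and rested 5 h at 37 C/5% CO2, received compounds in DMSO for 16 h at 37 C. CellTiter-Glo was then added, and luminescence was read after 30 min at room temperature to gauge cytotoxicity.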
% is set by controls: 0 for no effect and ±100 for the full control effect.

For `O=[N+]([O-])c1ccccc1[N+](=O)[O-]`, the results for the activity, negative = cytotoxicity in test [1] (at 83.3 µM (top of the series)) and in test [1] (at 95.3 µM (top of the series)) were inactive: -8.6% and inactive: -20.8%, respectively. In test [2] (at 83.2 µM (top of the series)), the activity change, negative = cytotoxicity was inactive: -18.1%. Also, the Potency in test [3] was active: 44.4 µM. For the same molecule, the fluorescence, relative to Rose Bengal in test [4] (at 91.3 µM (top of the series)) was inactive: 0.027%; in test [4] (at 95.7 µM (top of the series)) it was inactive: -0.0216%. Besides, the fluorescence, % of fluorescein control was inactive: -0.0343% in test [5] (at 91.3 µM (top of the series)) and inactive: -0.0218% in test [5] (at 95.7 µM (top of the series)). In addition, the fluorescence, % of triamterene in test [6] (at 91.3 µM (top of the series)) was inactive: -0.169%; in test [6] (at 95.7 µM (top of the series)) it was inactive: -0.0702%. Besides, the fluorescence, % of fluorescent control in test [7] (at 91.3 µM (top of the series)) is inactive: -0.0503%; in [7] (at 95.7 µM (top of the series)), inactive: 0.141%.

With `ClCCOP(OCCCl)OCCCl`, the activation in [8] (at 73.3 µM (top of the series)) was inactive: -3.89%; in test [8] (at 95.1 µM (top of the series)) it was inactive: -1.61%; in test [9] (at 83.3 µM (top of the series)), inactive: 2.24%; in test [9] (at 95.3 µM (top of the series)), inactive: 1.15%. In addition, the activity change, negative = cytotoxicity is inactive: 12.8% in [10] (at 83.3 µM (top of the series)), inactive: 4.13% in [10] (at 95.3 µM (top of the series)), inactive: -1.69% in [2] (at 83.2 µM (top of the series)) and inactive: 6.16% in test [2] (at 95.3 µM (top of the series)). Besides, the activity, negative = cytotoxicity in test [1] (at 83.3 µM (top of the series)) was inactive: 10%; in [1] (at 95.3 µM (top of the series)), inactive: -5.75%. Besides, the Potency entry in [3] was “inactive”. In test [4] (at 91.3 µM (top of the series)), the fluorescence, relative to Rose Bengal was inactive: 0.0831% and inactive: 0.133%. Moreover, the fluorescence, % of fluorescein control in test [5] (at 91.3 µM (top of the series)) was inactive: -0.0332% and inactive: 0.0097%. In test [6] (at 91.3 µM (top of the series)), the fluorescence, % of triamterene is inactive: -0.0249% and inactive: -0.0305%. Further, the fluorescence, % of fluorescent control in [7] (at 91.3 µM (top of the series)) was inactive: 0.288% and inactive: -0.0931%.

Consider `CCOP(=S)(Cl)OCC`, for which the activity change, negative = cytotoxicity is inactive: -22.5% in test [10] (at 83.3 µM (top of the series)) and inactive: 14.8% in [2] (at 83.2 µM (top of the series)). Further, the activity, negative = cytotoxicity in test [1] (at 83.3 µM (top of the series)) is inactive: -9.03%. The Potency in test [3] was active: 26.9 µM. In addition, the fluorescence, relative to Rose Bengal in test [4] (at 91.3 µM (top of the series)) is inactive: -0.0159%. The fluorescence, % of fluorescein control in test [5] (at 91.3 µM (top of the series)) was inactive: -0.0163%. Further, the fluorescence, % of triamterene in test [6] (at 91.3 µM (top of the series)) is inactive: -0.23%. For the same molecule, the fluorescence, % of fluorescent control in [7] (at 91.3 µM (top of the series)) was inactive: 0.406%.

With `CCOP(=O)(Cl)Cl`, the activation in test [8] (at 73.3 µM (top of the series)) is inactive: -1.88% and inactive: -0.706%; in test [9] (at 83.3 µM (top of the series)), inactive: -2.23% and inactive: 2.65%. Moreover, the activity change, negative = cytotoxicity in test [10] (at 83.3 µM (top of the series)) is inactive: -2.85% and inactive: 13.8%; in test [2] (at 83.2 µM (top of the series)) it was inactive: 6.15% and inactive: 5.07%. The activity, negative = cytotoxicity in [1] (at 83.3 µM (top of the series)) was inactive: -6.03% and inactive: 21.5%. Further, the Potency result in test [3] is “inactive”. Moreover, the fluorescence, relative to Rose Bengal in test [4] (at 91.3 µM (top of the series)) was inactive: -0.0426% and inactive: 0.0669%. Also, in [5] (at 91.3 µM (top of the series)), the fluorescence, % of fluorescein control was inactive: 0.0235% and inactive: -0.0109%. Besides, the fluorescence, % of triamterene in test [6] (at 91.3 µM (top of the series)) is inactive: 0.0452% and inactive: 0.0393%. Further, the fluorescence, % of fluorescent control in test [7] (at 91.3 µM (top of the series)) was inactive: 0.578% and inactive: 0.0927%.
